Assay results from ChEMBL document CHEMBL2218924, “A broad activity screen in support of a chemogenomic map for kinase signalling research and drug discovery” (Biochem J, 2013).
For some of these results: Most of the strong results are listed elsewhere, so they are rarer here than in the full data. The rule behind the calls is not given here. This is a selection; strong and weak results do not stand in their true shares.

Chains of the proteins cited; added tags and fusions are not shown. Lines headed by an entry give the natural chain unless they say otherwise; changes in a name come on top.
UniProt P06493, whole entry, looked up: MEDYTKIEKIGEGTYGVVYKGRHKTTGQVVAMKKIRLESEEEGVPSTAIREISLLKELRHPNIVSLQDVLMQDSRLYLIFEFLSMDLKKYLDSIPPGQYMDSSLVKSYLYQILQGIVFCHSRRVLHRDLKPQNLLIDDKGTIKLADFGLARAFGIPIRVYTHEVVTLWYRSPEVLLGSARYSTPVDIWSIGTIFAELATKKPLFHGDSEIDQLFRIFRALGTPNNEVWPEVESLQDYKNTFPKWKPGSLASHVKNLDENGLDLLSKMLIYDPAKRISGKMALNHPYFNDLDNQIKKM
UniProt P14635, whole entry, looked up: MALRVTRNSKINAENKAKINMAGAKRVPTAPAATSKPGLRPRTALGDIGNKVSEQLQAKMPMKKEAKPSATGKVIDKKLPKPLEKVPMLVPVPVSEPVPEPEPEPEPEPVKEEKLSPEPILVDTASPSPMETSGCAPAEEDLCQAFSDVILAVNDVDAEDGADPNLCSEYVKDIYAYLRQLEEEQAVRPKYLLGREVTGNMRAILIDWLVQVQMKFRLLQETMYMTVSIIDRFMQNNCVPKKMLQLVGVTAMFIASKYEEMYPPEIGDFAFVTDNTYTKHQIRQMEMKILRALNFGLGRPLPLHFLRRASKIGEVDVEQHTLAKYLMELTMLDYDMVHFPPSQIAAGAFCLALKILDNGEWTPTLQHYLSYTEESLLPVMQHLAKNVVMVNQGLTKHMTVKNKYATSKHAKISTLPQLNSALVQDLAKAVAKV
UniProt Q15375: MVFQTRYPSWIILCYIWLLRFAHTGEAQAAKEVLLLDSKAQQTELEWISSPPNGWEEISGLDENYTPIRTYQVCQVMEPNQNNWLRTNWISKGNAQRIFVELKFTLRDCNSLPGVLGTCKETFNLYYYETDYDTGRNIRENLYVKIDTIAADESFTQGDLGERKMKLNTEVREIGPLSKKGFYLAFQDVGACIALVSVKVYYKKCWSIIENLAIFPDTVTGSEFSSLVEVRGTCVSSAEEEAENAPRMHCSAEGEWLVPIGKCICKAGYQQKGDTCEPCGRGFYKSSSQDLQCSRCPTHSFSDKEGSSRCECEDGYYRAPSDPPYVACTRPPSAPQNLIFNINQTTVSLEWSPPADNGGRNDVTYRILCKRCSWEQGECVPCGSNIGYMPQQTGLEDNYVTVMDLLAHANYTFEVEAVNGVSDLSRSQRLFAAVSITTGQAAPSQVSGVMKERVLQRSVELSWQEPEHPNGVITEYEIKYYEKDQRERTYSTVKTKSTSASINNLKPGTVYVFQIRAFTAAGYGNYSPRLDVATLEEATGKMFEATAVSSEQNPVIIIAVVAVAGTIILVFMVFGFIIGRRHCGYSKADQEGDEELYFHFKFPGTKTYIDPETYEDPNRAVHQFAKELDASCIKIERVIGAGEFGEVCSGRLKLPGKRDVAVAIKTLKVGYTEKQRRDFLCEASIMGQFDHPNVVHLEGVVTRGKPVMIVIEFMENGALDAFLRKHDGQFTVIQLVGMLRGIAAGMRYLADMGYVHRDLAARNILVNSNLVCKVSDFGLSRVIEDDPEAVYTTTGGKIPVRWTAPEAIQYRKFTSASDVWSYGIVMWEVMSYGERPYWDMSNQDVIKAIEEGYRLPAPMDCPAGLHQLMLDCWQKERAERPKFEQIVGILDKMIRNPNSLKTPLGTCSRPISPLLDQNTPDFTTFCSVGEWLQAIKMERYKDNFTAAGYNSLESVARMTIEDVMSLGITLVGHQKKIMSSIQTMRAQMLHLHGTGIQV
UniProt P22455, whole entry, looked up: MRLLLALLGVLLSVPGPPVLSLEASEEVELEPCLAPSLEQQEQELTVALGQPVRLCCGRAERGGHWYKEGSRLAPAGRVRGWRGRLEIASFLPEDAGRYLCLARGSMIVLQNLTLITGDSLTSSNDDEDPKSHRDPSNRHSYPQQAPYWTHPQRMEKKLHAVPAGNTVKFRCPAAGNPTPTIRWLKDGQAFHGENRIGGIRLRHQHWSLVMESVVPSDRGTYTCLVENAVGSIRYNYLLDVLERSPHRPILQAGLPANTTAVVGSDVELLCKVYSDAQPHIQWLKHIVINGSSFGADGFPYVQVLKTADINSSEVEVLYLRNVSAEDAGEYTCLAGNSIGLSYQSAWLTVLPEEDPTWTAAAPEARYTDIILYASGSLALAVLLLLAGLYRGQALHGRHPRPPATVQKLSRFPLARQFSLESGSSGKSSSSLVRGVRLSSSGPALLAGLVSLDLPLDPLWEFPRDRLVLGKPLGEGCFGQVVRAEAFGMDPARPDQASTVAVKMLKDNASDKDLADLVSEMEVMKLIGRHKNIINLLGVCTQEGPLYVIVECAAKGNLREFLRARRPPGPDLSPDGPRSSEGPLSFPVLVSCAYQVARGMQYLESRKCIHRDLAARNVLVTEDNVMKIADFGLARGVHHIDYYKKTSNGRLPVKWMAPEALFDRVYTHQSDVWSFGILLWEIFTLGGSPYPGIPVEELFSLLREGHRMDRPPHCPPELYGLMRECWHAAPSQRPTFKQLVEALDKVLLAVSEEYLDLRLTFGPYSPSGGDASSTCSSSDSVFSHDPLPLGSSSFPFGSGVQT
UniProt Q9H2X6: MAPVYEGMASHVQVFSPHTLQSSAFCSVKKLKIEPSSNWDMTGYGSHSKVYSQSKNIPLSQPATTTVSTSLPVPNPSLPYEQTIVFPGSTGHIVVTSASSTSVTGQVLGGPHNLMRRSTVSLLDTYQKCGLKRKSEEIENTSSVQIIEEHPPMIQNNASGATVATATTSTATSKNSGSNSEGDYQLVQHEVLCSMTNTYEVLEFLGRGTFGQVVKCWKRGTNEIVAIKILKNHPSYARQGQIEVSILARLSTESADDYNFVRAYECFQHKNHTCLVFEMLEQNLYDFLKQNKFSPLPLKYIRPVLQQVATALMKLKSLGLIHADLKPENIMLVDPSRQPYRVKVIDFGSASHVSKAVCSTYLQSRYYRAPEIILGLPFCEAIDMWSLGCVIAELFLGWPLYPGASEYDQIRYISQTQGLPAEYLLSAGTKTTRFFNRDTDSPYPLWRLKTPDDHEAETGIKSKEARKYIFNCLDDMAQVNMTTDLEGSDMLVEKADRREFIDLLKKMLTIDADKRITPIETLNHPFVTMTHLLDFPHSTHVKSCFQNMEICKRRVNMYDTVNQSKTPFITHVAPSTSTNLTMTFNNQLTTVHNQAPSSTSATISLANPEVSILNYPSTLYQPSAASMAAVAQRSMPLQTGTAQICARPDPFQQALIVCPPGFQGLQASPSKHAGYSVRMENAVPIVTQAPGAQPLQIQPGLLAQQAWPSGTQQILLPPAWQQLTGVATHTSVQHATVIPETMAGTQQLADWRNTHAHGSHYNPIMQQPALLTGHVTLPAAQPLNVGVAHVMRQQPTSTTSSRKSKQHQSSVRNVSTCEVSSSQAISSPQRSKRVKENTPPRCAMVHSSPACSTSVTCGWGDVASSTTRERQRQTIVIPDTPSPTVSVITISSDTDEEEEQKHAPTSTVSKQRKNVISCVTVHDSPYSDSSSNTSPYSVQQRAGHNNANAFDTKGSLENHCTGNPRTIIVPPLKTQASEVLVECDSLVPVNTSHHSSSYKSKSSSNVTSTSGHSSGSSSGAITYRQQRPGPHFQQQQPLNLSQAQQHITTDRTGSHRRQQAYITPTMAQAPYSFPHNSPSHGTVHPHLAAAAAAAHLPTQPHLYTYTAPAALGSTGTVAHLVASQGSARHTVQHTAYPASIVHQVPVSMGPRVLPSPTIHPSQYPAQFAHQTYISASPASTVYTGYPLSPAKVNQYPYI
UniProt O43318: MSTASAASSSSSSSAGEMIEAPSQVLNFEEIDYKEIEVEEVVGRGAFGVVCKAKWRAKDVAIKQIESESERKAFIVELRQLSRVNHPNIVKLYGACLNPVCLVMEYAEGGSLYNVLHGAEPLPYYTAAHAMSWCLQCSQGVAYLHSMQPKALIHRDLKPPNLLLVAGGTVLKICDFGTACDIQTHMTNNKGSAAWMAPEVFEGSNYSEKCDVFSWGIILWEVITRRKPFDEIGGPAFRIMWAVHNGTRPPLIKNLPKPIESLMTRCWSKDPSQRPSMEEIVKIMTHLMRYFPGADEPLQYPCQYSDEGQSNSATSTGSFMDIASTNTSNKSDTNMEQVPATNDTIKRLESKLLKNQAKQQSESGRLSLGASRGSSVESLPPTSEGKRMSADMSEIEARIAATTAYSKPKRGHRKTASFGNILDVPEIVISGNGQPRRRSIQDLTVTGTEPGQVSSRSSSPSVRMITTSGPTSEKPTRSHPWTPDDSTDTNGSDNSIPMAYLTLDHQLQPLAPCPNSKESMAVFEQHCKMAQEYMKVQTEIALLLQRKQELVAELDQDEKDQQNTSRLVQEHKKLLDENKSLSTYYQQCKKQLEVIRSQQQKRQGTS
UniProt Q9UL54: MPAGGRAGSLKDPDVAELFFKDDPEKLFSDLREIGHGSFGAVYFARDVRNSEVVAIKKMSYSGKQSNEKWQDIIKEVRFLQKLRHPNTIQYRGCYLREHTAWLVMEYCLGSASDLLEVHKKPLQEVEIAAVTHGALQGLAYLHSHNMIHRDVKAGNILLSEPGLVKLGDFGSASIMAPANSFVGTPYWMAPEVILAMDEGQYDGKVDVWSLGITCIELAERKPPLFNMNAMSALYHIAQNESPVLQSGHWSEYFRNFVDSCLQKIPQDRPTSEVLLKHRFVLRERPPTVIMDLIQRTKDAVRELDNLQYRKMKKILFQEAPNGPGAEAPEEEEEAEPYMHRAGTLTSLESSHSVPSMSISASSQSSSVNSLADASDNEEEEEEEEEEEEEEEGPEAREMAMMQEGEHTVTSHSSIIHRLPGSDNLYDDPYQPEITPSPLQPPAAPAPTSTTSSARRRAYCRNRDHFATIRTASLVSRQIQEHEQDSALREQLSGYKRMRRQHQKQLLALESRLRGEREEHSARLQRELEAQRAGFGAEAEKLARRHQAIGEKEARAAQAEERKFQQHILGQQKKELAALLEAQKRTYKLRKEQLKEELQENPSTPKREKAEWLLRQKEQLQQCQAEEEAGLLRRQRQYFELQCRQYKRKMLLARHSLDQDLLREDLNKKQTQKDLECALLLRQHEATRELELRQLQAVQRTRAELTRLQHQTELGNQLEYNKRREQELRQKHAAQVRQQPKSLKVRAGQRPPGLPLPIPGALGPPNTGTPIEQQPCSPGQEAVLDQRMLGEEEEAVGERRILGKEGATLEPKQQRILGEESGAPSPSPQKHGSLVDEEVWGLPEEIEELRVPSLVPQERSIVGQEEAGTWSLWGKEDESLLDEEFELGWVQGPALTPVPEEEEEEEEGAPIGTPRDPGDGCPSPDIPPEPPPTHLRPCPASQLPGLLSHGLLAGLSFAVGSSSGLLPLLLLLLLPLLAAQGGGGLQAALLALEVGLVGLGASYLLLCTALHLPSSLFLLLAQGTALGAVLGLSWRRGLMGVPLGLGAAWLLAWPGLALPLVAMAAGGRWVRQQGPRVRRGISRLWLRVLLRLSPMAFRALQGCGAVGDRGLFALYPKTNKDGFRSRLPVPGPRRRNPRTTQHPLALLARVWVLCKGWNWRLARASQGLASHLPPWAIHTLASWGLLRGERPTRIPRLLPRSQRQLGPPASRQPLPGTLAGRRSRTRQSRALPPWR
UniProt P51955: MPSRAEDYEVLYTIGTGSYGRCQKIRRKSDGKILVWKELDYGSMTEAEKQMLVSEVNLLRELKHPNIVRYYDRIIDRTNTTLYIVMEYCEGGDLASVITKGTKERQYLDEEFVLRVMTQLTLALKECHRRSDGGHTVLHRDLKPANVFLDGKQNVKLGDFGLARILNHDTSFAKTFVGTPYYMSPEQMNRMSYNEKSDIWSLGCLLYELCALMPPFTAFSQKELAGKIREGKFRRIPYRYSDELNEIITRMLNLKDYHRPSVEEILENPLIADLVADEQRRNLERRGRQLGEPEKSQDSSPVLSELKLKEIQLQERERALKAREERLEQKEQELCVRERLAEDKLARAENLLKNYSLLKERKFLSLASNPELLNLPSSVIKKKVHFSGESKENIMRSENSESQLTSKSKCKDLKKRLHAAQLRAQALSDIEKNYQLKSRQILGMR
UniProt Q9UBE8: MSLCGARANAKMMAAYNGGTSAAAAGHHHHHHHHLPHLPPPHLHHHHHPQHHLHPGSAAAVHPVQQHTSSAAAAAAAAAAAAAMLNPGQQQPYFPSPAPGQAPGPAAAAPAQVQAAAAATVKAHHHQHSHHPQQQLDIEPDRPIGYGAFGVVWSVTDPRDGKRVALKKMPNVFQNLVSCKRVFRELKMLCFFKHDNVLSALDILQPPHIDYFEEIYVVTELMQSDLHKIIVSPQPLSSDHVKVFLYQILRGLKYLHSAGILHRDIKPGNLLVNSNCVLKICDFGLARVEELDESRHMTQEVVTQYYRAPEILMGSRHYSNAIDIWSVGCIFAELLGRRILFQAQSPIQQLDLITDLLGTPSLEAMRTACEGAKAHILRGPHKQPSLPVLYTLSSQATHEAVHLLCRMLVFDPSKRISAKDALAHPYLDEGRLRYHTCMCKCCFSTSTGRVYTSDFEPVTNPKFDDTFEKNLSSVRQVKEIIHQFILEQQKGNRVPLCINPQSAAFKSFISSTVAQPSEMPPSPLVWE

Assays:
[1] = molecular target: Epidermal growth factor receptor (Homo sapiens) (UniProt P00533); details: at 1 µM
[2] = molecular target: Epidermal growth factor receptor (Homo sapiens) (UniProt P00533); details: at 10 µM
[3] = molecular target: T1, Eukaryotic elongation factor 2 kinase (Homo sapiens) (UniProt O00418); details: at 1 µM
T1 sequence (whole entry): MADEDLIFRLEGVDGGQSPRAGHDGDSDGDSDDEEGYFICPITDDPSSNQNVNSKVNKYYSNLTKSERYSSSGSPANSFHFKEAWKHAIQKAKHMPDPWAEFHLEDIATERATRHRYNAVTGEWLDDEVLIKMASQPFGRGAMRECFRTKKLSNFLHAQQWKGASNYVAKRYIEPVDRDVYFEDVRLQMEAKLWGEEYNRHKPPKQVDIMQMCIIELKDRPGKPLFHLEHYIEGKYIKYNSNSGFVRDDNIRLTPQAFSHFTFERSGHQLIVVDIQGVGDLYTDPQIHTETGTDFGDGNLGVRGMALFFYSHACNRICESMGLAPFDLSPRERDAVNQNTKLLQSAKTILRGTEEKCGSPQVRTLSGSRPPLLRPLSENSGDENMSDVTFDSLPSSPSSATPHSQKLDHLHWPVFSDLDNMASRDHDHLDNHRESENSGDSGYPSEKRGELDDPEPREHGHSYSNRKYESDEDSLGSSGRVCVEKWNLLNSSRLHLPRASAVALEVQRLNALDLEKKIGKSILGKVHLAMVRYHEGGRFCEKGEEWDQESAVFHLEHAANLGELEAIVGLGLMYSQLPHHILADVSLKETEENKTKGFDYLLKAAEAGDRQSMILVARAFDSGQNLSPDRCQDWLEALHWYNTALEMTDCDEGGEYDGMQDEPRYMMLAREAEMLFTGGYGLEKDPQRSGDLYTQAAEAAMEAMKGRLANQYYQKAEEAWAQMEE

[4] = molecular target: T1, Eukaryotic elongation factor 2 kinase (Homo sapiens); details: at 10 µM
[5] = molecular target: Cyclin-dependent kinase 1/cyclin B1 (Homo sapiens) (UniProt P06493+P14635); details: at 1 µM
[6] = molecular target: T2, Casein kinase II (Homo sapiens) (UniProt P67870+P68400+P19784); details: at 1 µM
[7] = molecular target: T2, Casein kinase II (Homo sapiens); details: at 10 µM
[8] = molecular target: Ephrin type-A receptor 4 (Homo sapiens) (UniProt P54764); details: at 10 µM
[9] = molecular target: Ephrin type-A receptor 7 (Homo sapiens) (UniProt Q15375); details: at 1 µM
[10] = molecular target: Fibroblast growth factor receptor 4 (Homo sapiens) (UniProt P22455); details: at 10 µM
[11] = molecular target: Homeodomain-interacting protein kinase 2 (Homo sapiens) (UniProt Q9H2X6); details: at 1 µM
[12] = molecular target: T3, cGMP-dependent protein kinase 1 (Homo sapiens) (UniProt Q13976); details: at 1 µM
T3 sequence (whole entry): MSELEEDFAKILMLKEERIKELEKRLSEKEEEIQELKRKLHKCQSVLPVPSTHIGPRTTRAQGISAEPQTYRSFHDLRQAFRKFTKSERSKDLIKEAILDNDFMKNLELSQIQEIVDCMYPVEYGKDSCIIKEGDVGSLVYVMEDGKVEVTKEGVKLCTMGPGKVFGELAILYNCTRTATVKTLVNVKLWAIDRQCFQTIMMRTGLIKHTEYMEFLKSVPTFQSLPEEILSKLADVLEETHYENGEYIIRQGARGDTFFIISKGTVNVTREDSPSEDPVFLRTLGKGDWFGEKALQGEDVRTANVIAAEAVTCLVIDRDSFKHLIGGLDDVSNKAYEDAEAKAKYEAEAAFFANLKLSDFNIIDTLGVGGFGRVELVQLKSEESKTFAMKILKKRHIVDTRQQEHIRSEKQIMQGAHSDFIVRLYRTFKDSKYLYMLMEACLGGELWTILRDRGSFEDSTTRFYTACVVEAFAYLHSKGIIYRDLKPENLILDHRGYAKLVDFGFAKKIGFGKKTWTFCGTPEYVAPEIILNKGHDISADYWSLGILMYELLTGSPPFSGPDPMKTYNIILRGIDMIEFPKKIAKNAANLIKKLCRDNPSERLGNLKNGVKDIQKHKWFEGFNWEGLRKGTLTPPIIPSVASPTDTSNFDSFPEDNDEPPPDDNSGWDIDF

[13] = molecular target: SRSF protein kinase 2 (Homo sapiens) (UniProt P78362); details: at 1 µM
[14] = molecular target: Serine/threonine-protein kinase PLK2 (Homo sapiens) (UniProt Q9NYY3); details: at 10 µM
[15] = molecular target: Mitogen-activated protein kinase kinase kinase 7 (Homo sapiens) (UniProt O43318); details: at 1 µM
[16] = molecular target: Serine/threonine-protein kinase TAO2 (Homo sapiens) (UniProt Q9UL54); details: at 1 µM
[17] = molecular target: TGF-beta receptor type-1 (Homo sapiens) (UniProt P36897); details: at 1 µM
[18] = molecular target: Insulin receptor (Homo sapiens) (UniProt P06213); details: at 1 µM
[19] = molecular target: Insulin receptor (Homo sapiens) (UniProt P06213); details: at 10 µM
[20] = molecular target: LIM domain kinase 1 (Homo sapiens) (UniProt P53667); details: at 1 µM
[21] = molecular target: Misshapen-like kinase 1 (Homo sapiens) (UniProt Q8N4C8); details: at 1 µM
[22] = molecular target: Serine/threonine-protein kinase MRCK beta (Homo sapiens) (UniProt Q9Y5S2); details: at 1 µM
[23] = molecular target: Serine/threonine-protein kinase Nek2 (Homo sapiens) (UniProt P51955); details: at 1 µM
[24] = molecular target: Tyrosine-protein kinase Tec (Homo sapiens) (UniProt P42680); details: at 1 µM
[25] = molecular target: Serine/threonine-protein kinase NLK (Homo sapiens) (UniProt Q9UBE8); details: at 1 µM
[26] = molecular target: PAS domain-containing serine/threonine-protein kinase (Homo sapiens) (UniProt Q96RG2); details: at 1 µM

## Oc1n[nH]c2nnc(-c3c(-c4ccccc4)nn4ccccc34)cc12
[1]
  residual activity: 100%
[2]
  residual activity: 61%
[3]
  residual activity: inactive: 110%
[4]
  residual activity: 90%

## O=c1c2ccccc2[nH]c(=S)n1CCN1CCC(=C(c2ccc(F)cc2)c2ccc(F)cc2)CC1
[1]
  residual activity: 119%
[2]
  residual activity: 113%
[3]
  residual activity: inactive: 97%

## O=C1NC(=O)C(c2cn(CCCn3ccnc3)c3ccccc23)=C1Nc1ccccc1
[5]
  residual activity: 96%
[6]
  residual activity: 90%
[7]
  residual activity: 98%
[1]
  residual activity: 117%
[2]
  residual activity: 85%
[8]
  residual activity: 95%
[9]
  residual activity: 94%
[10]
  residual activity: 90%
[11]
  residual activity: 91%
[12]
  residual activity: 97%
[13]
  residual activity: 95%
[14]
  residual activity: 97%
[15]
  residual activity: 86%
[16]
  residual activity: 94%
[17]
  residual activity: 89%
[18]
  residual activity: 91%
[19]
  residual activity: 88%
[20]
  residual activity: 84%
[21]
  residual activity: 85%
[22]
  residual activity: 87%
[23]
  residual activity: 83%
[24]
  residual activity: 93%
[3]
  residual activity: inactive: 94%
[4]
  residual activity: 93%
[25]
  residual activity: 92%
[26]
  residual activity: 99%

## O=c1cc(-c2cccc3c2Sc2ccccc2S3)oc(N2CCOCC2)c1
[1]
  residual activity: 100%
[2]
  residual activity: 103%
[3]
  residual activity: inactive: 108%
[4]
  residual activity: 90%

## O=Nc1c(-c2c(O)[nH]c3ccccc23)[nH]c2ccccc12
[1]
  residual activity: 15%

## O=C(CCCc1ccc(-c2ccccc2F)cc1)Nc1ccc(O)cc1
[1]
  residual activity: 110%
[2]
  residual activity: 110%
[3]
  residual activity: inactive: 102%

## O=C(Nc1nc2ccccc2n1CCN1CCOCC1)c1cccc([N+](=O)[O-])c1
[1]
  residual activity: 111%
[2]
  residual activity: 109%
[3]
  residual activity: inactive: 101%
[4]
  residual activity: 84%

## N#C/C(=C(\N)Sc1ccc(N)cc1)c1ccccc1C(F)(F)F
[1]
  residual activity: 112%
[2]
  residual activity: 113%
[3]
  residual activity: inactive: 81%
[4]
  residual activity: 82%

## Cn1cc(/C=C2\C(=O)Nc3ccc(S(N)(=O)=O)cc32)c2ccccc21
[1]
  residual activity: 103%
[2]
  residual activity: 114%
[3]
  residual activity: inactive: 98%
[4]
  residual activity: 94%

## Cc1cc(Nc2nc(-c3ccccc3)nc3ccccc23)n[nH]1
[1]
  residual activity: 15%
[2]
  residual activity: 7%

## O=C1Nc2ccc(Br)cc2/C1=C\c1cc2c([nH]1)CCCC2
[1]
  residual activity: 103%
[2]
  residual activity: 119%

## COc1cccc(-c2cc(=O)c3ccccc3o2)c1N
[1]
  residual activity: 107%
[2]
  residual activity: 114%
[3]
  residual activity: inactive: 101%
[4]
  residual activity: 98%
